Assay [1] deals with T1, KOR (Homo sapiens, UniProt P41145).
T1 construct: expressed in transfected cells; host or cells: CHO (Chinese hamster ovary) cell line, membrane preparation
As to the kind of experiment: KOR [35S]GTPγS binding assay (Example 5). It counts as biochemical. Conditions: three experiments. The protocol:
The KOR full agonist 2-(3,4-dichlorophenyl)-N-methyl-N-[(1R,2R)-2-pyrrolidin-1-ylcyclohexyl]acetamide 17 (U50,488)41 and DOR full agonist 4-[(R)-[(2S,5R)-4-allyl-2,5-dimethylpiperazin-1-yl](3-methoxyphenyl)methyl]-N,N-diethylbenzamide 18 (SNC80)42 were included in the assays as reference compounds for a maximal effect at the KOR and the DOR, respectively.
The radioligand binding assay and the [^35S]GTPγS binding assay were conducted using monoclonal OR-expressed Chinese hamster ovarian (CHO) cell lines as described previously.^22,29,36,37 Briefly, for the competition binding assay, [^3H]NLX, [^3H]DPN, and [^3H]NTI were used to label the MOR, the KOR, and the DOR, respectively. Aliquots of a membrane protein (30 μg) were incubated with the corresponding radioligand in the presence of different concentrations of the ligand under investigation in TME buffer (50 mM Tris, 3 mM MgCl2, 0.2 mM EGTA, pH 7.7) at 30° C. for 1.5 h. The bound radioactive ligand was separated from the free radioligand by filtration using the Brandel harvester (Biomedical Research & Development Laboratories, MD). […] The potency of the drugs in displacing the specific binding of the radioligand was determined by linear regression analysis of Hill plots. […] Nonspecific binding was determined with 20 μM unlabeled GTPγS.
For orientation: GTPγS resists hydrolysis and so accumulates on activated G proteins.

By UniProt entry, the sequences of proteins in these tests, tags left out. Where a name states a change or a piece, a line headed by the entry shows the natural chain unless it says otherwise.
UniProt P41145: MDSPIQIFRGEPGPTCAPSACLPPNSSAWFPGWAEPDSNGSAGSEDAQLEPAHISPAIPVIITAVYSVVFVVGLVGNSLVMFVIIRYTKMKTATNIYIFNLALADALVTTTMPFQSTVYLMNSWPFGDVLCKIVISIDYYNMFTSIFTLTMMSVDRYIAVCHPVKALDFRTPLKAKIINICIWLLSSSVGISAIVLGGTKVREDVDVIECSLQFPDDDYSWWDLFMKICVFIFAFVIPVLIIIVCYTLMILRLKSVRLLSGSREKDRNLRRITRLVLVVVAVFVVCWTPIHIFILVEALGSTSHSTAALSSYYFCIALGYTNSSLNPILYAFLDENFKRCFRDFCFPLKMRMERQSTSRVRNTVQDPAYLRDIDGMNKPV
UniProt P42866, whole entry: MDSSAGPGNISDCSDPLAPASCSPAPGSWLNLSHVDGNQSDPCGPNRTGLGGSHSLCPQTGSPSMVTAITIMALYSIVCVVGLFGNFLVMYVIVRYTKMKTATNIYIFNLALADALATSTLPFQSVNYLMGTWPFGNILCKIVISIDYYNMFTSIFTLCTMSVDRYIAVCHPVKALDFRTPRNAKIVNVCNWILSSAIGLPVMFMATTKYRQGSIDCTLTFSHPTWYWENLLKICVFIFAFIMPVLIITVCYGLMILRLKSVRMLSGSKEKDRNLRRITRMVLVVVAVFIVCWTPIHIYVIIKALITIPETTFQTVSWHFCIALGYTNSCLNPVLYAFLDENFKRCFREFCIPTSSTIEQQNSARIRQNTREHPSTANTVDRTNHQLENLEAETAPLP

Assay [2] addresses T1, KOR. The assay is classed as binding. Conditions: n=3; read-out: Ki ± SEM KOR.
Assay [3] addresses T2, MOR (Mus musculus, UniProt P42866). As to the kind of experiment: 35S-GTP[γS]-binding functional assay in MOR expressing CHO cells (Example 2). On the set-up: expressed in transfected cells; host or cells: CHO (Chinese hamster ovary) cell line, membrane preparation. It counts as biochemical.
Assay [4] deals with T2, MOR. As to the kind of experiment: Competitive radioligand binding, [3H]naloxone, CHO cells (Example 2). On the set-up: expressed in transfected cells; host or cells: CHO (Chinese hamster ovary) cell line, membrane preparation. The conditions noted are these: n=3; listed as 9 (NAQ); read-out: Ki ± SEM MOR.
For assay [5], the target named is T1, KOR. The conditions noted are these: NAP, cited from earlier work.

Here are results for 2 substances from US8980908B2, “Non-peptidyl, potent, and selective mu opioid receptor antagonists and their use in treating opioid addiction and opioid induced constipation” (Virginia Commonwealth University, priority 2009, dated 2015).

“And” between values parts separate entries of the source, which are not always exact repeats. Equal values may be shown once. Read-outs that look alike come from different tables or passages of the source.

“17-Cyclopropylmethyl-3,14β-dihydroxy-4,5α-epoxy-6α-[(3′-isoquinolyl)acetamido]morphinan [Compound 9]”: the 50% effective concentration (EC50) (in general, the concentration at which the effect is half-maximal) at KOR [1] is 10.9 ± 7.9 nM; at MOR [3] (n=3) it was 4.36 ± 0.723 nM. In addition, the “KOR [35S]GTPγS Binding % Emax of U50,488” value on KOR [1] stood at 13.1 ± 2.0%. In addition, the Ki (usually a measure of affinity in units of concentration, obtained from inhibition or displacement) is 26.5 ± 5.22 nM on KOR [2]; 0.55 nM and 0.556 nM on MOR [4]. The “Percent Max of DAMGO” value on MOR [3] (normalized to full agonist DAMGO (3 μM)) is recorded as 15.8383 ± 2.5353%.
Consider “17-Cyclopropylmethyl-3,14β-dihydroxy-4,5α-epoxy-6β-[(4′-pyridyl)acetamido]morphinan [Compound 6]”, for which the “KOR 35S-GTP[γS] Binding % Emax of U50,488H (see reference 66)” value on KOR [5] is recorded as 45.5 ± 4.4%. Also, the EC50 at KOR [5] (read-out: KOR 35S-GTP[γS] Binding EC50 (see reference 66)) was 28.8 ± 14.4 nM. The Ki at KOR [2] was 608 ± 56.6 nM.
